Earlier results as cited in patent EP1156371A2, “Replenishing method of planographic printing plate developer” (FUJI PHOTO FILM CO., LTD., priority 2000, dated 2001).

Conditions: dissociation constant of weak acid, aqueous solution

Molecule | pKa
1-amino-3,3,3-trifluorobenzoic acid | 12.29
3,4-dihydroxysulfonic acid | 12.2
ON=C1CCCCCC1=NO [1,2-cycloheptanedione dioxime] | 12.3
CN(C)CP(=O)(O)O [dimethylaminomethyl phosphonic acid] | 12.32
Nc1cc[nH]c(=O)n1 [cytosine] | 12.3
